Data as given in patent publication US9403874B2, “Peptides and use thereof” (IL YANG PHARM. CO.,LTD., priority 2012, dated 2016).

Assays:
Type in all cases: cell-based
Settings in all cases: 100 ng/me of peptide; EBV-infected B cells stimulated with anti-CD150; ELISA of culture supernatant
IL-6 = test: Reduction of IL-6 secretion in activated B cells (ELISA)
Experimental: (§1) In order to determine the activity of the novel peptides synthesized in Example 1 for reducing the secretion of inflammatory cytokines, the activated pathogenic B cells were treated with each of the 18 types of synthesized novel peptides and the reduction in secretion of inflammatory cytokines from the B cells was monitored.
(§2) Specifically, in order to determine whether the novel peptides could weaken the pathogenic B cells which are involved in the development of disease symptoms, the in vitro B cells model which is similar to the joint infiltrative B cells of rheumatoid arthritis was used. The activated pathogenic B cell was generated by stimulating Ebstein Barr virus (EBV)-infected B cells with anti-CD150 antibodies, and the cells were treated with […] of each of the 18 types of novel peptide.
(§3) In order to confirm the effect of 18 types of novel peptides in reducing inflammatory cytokines, the secretion amount of various cytokines (IL-1A, IL-1B, IL-2, IL-4, IL-5, IL-6, IL-8, IL-10, IL-12A, IL-13, IL-17A, GM-CSF, IL-34) secreted from the activated B cells was measured. The supernatants of B cell culture were analyzed enzyme-linked immunosorbent assay (ELISA), and the difference in absorbance (450 nm-570 nm) of the color developing reagent was measured as test results. […]

IL-34 = test: Reduction of IL-34 secretion in activated B cells (ELISA)
Experimental: as §1, §2, §3

IL-4 = test: Reduction of IL-4 secretion in activated B cells (ELISA)
Experimental: as §1, §2, §3

IL-5 = test: Reduction of IL-5 secretion in activated B cells (ELISA)
Experimental: as §1, §2, §3

IL-13 = test: Reduction of IL-13 secretion in activated B cells (ELISA)
Experimental: as §1, §2, §3

GM-CSF = test: Reduction of GM-CSF secretion in activated B cells (ELISA)
Experimental: as §1, §2, §3

IL-1A = test: Reduction of IL-1A secretion in activated B cells (ELISA)
Experimental: as §1, §2, §3

IL-8 = test: Reduction of IL-8 secretion in activated B cells (ELISA)
Experimental: as §1, §2, §3

IL-10 = test: Reduction of IL-10 secretion in activated B cells (ELISA)
Experimental: as §1, §2, §3

IL-2 = test: Reduction of IL-2 secretion in activated B cells (ELISA)
Experimental: as §1, §2, §3

IL-17A = test: Reduction of IL-17A secretion in activated B cells (ELISA)
Experimental: as §1, §2, §3

IL-1B = test: Reduction of IL-1B secretion in activated B cells (ELISA)
Experimental: as §1, §2, §3

IL-12A = test: Reduction of IL-12A secretion in activated B cells (ELISA)
Experimental: as §1, §2, §3

Substance | Inhibition rate of each cytokine compared to CD150-stimulated EBV-t B cells (%) IL-6 (IL-6) | Inhibition rate of each cytokine compared to CD150-stimulated EBV-t B cells (%) IL-34 (IL-34) | Inhibition rate of each cytokine compared to CD150-stimulated EBV-t B cells (%) IL-4 (IL-4) | Inhibition rate of each cytokine compared to CD150-stimulated EBV-t B cells (%) IL-5 (IL-5) | Inhibition rate of each cytokine compared to CD150-stimulated EBV-t B cells (%) IL-13 (IL-13) | Inhibition rate of each cytokine compared to CD150-stimulated EBV-t B cells (%) GM-CSF (GM-CSF) | Inhibition rate of each cytokine compared to CD150-stimulated EBV-t B cells (%) IL-1A (IL-1A) | Inhibition rate of each cytokine compared to CD150-stimulated EBV-t B cells (%) IL-8 (IL-8) | Inhibition rate of each cytokine compared to CD150-stimulated EBV-t B cells (%) IL-10 (IL-10) | Inhibition rate of each cytokine compared to CD150-stimulated EBV-t B cells (%) IL-2 (IL-2) | Inhibition rate of each cytokine compared to CD150-stimulated EBV-t B cells (%) IL-17A (IL-17A) | Inhibition rate of each cytokine compared to CD150-stimulated EBV-t B cells (%) IL-1B (IL-1B) | Inhibition rate of each cytokine compared to CD150-stimulated EBV-t B cells (%) IL-12A (IL-12A)
SIS-1#12 (DG; SIS-1#12 peptide) | 3.1% | 0.3% | 1.3% | 0.9% | 0.9% | 1.0% | 0.3% | 0.1% | 0.3% | 1.2% | 0.3% | 1.3% | 2.9%
SIS-1#13 (RD; SIS-1#13 peptide) | 1.2% | 0.1% | 1.6% | 2.5% | 0.5% | 0.5% | 1.0% | 0.7% | 1.0% | 1.6% | 0.7% | 1.2% | 1.2%
